In patent US11850234B2, “Enhancement of cancer treatment efficiency via the sphingosine-1-phosphate pathway” (priority 2017, dated 2023):

System: CAM-grafted pancreas, lung and ovarian tumors
Experiment: Neoadjuvant effect in the CAM (Chicken Chorioallantoic Model) with grafted tumors
Assay type: in vivo
Settings: compared to CAM-grafted tumors not previously treated with the neoadjuvants
Description: The neoadjuvant effect of benzylphthalazine and imidazole derivatives according to the present invention are assessed for their neoadjuvant effect against pancreas, lung and ovarian tumors.
The neoadjuvant effect is evaluated using the CAM (Chicken Chorioallantoic Model) as described by Sliwinska et al. (Sliwinska et al., Angiogenesis, 2014, 14(4), 779-804).

oxaliplatin
cytotoxic effect against CAM-grafted tumors pretreated with neoadjuvant: enhanced
